Reference: US20230113398A1, “INEXPENSIVE METAL-FREE ORGANIC REDOX FLOW BATTERY (ORBAT) FOR GRID-SCALE STORAGE” (UNIVERSITY OF SOUTHERN CALIFORNIA, priority 2013, published 2023)

Test: Solubility
Settings: Table 7

Substance: Maleic hydrazide
- Solubility: 100 mM
